Read-outs that look alike come from different tables or passages of the source.

Consider one compound from patent US20240173312A1, “Pharmaceutical Composition Comprising a Benzoheterocyclic Compound and Androgen Receptor Pathway Modulator and Application Thereof” (KANGPU BIOPHARMACEUTICALS, LTD., priority 2015, published 2024).

In this assay the test system is Vcap cells (androgen receptor (+) prostate cancer cells). The assay can be described thus: CTG cell proliferation assay (CellTiter-Glo). The note with it: for viability at 0.1 µM / viability at 1 µM / viability at 10 µM: Homo sapiens, VCaP, 120 h. For orientation: ATP-based viability assays read luminescence as a measure of living cells.
Where [1] appears, read: read-out: Survival rate of Vcap cells, Table 3, tested compound alone.
Where [2] appears, read: read-out: Survival rate of Vcap cells, Table 9, tested compound alone.
The mark [3] stands for this setting: read-out: Survival rate of Vcap cells, Table 10, tested compound alone.

Take `CNC(=O)c1ccc(N2C(=S)N(c3cnc(C#N)c(C(F)(F)F)c3)C(=O)C23CCC3)cc1F` [ARN-509, reference compound]: the viability at 0.1 µM amounted to 81.8% under setting [1], 95.9% under setting [2] and 95.9% under setting [3]. The viability at 1 µM turned out to be 52.2% (read-out: Survival rate of Vcap cells, Table 3, tested compound alone, 1.0 μM); 70.4% (read-out: Survival rate of Vcap cells, Table 9, tested compound alone, 1.0 μM); 70.4% (read-out: Survival rate of Vcap cells, Table 10, tested compound alone, 1.0 μM). Also, the viability at 10 µM under setting [1] stood at 48.9%, the viability at 10 µM under setting [2] came out at 61.9% and the viability at 10 µM under setting [3] worked out at 61.9%. Besides, the “Survival rate of Vcap cells” value (Table 3, tested compound alone, 1.0 μM) was 52.2%; the “Survival rate of Vcap cells” value (Table 9, tested compound alone, 1.0 μM) came out at 70.4%; the “Survival rate of Vcap cells” value (Table 10, tested compound 0.1 μM in combination with 1 μM B001) worked out at 50.9%; the “Survival rate of Vcap cells” value (Table 10, tested compound 0.1 μM in combination with 1 μM K001) was determined as 54.1%; the “Survival rate of Vcap cells” value (Table 10, tested compound 1.0 μM in combination with 1 μM B001) was 42.6%; the “Survival rate of Vcap cells” value (Table 10, tested compound 1.0 μM in combination with 1 μM K001) is listed as 45.1%. Further, the “Survival rate of Vcap cells” value reads like this: (Table 10, tested compound 10 μM in combination with 1 μM B001) 40.9%; (Table 10, tested compound 10 μM in combination with 1 μM K001) 41.8%.
